Measured values published in patent US11414387B2, “Oxoacridinyl acetic acid derivatives and methods of use” (Stingthera, Inc., priority 2017, dated 2022).
Where two headings read alike, the source gives them in different places.

Chains of the proteins cited; added tags and fusions are not shown. Residues count along the entry.
UniProt Q86WV6, 140-379 H232R limits assumed: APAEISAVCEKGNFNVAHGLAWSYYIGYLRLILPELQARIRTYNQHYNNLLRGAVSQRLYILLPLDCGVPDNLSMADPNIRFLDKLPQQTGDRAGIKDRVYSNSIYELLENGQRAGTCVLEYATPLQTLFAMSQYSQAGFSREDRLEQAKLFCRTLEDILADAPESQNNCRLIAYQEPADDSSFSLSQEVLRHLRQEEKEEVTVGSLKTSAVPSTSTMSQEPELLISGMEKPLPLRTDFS
UniProt Q86WV6, 135-379 limits assumed: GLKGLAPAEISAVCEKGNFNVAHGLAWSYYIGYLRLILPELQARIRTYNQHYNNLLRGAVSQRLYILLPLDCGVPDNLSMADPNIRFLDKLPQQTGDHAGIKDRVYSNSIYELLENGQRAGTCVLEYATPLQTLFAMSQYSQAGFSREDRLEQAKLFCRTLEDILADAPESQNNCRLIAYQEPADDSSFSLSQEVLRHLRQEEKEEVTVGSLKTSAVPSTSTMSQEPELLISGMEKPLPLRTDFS
UniProt Q86WV6, whole entry H232R: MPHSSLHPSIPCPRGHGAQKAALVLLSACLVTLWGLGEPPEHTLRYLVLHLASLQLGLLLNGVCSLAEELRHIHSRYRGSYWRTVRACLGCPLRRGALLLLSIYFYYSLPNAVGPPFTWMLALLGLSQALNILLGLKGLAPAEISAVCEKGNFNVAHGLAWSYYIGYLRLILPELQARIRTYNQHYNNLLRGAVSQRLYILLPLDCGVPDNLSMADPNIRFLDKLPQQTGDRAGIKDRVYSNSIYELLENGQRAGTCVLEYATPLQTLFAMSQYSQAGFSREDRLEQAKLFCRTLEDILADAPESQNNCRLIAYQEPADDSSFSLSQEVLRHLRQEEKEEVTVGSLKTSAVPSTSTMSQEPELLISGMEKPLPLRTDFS
UniProt Q3TBT3, 134-378 limits assumed: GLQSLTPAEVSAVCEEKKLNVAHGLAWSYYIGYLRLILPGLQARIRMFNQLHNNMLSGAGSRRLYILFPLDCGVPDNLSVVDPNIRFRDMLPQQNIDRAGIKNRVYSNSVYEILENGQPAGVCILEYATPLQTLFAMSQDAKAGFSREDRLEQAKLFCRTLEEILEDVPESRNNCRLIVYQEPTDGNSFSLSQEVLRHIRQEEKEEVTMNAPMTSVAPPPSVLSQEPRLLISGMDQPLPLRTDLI

Experiments:
[1] = biological target: hSTING-R232 (Homo sapiens (Human), UniProt Q86WV6, H232R); assay: STING differential scanning fluorimetry (DSF) assay, WT human STING; details: WT (R232) human STING aa140-379, net shift in melting temperature
[2] = biological target: STING protein (Homo sapiens (Human), UniProt Q86WV6, H232R); assay: Cell based reporter assay of IRF activation (IRF-luciferase), THP1-dual-KI R232; details: THP1-dual-KI R232 cells, HPE 100 μM 2′3′cGAMP
[3] = biological target: hSTING-WT (Homo sapiens (Human), UniProt Q86WV6, H232R); assay: Radiometric filtration binding competition assay, hSTING-WT; details: wild-type human STING
[4] = biological target: hSTING-CTD (Homo sapiens (Human), UniProt Q86WV6); assay: Human STING protein FP competition concentration response assay; details: read-out: hSTING IC50
[5] = biological target: mSTING-CTD (Mus musculus (Mouse), UniProt Q3TBT3); assay: Mouse STING protein FP competition concentration response assay; details: read-out: mSTING IC50

| WT_DSF_hSWAT Tm Shift (° C.) [1] | IC50 [4] [µM] | further results | SMILES |
| --- | --- | --- | --- |
| C (“C” = 2-7° C,) |  | THP1-dual-KI R232_IRF(Luciferase)_Activity Maximum measured (%) [2]: A (“A” < 5%); IC50 ([3]; read-out: WT-hSWAT IC50, WT_FBA_HIS-SUMO-hSWAT, filtration binding vs H3 2′3′cGAMP): 100 to 300 µM | COc1c(Cl)ccc2c(=O)c3ccc(N)cc3n(CC(=O)O)c12 |
|  | 500 to 1000 |  | Cc1ccc2c(c1)N(CC(=O)O)c1c(ccc(Cl)c1Cl)C2 |
|  | 500 to 1000 | IC50 [5]: > 100 µM | O=C(O)Cn1c2ccccc2c(=O)c2cc(C3CCCCC3)ccc21 |
| D (“D” > 7° C.) |  | IC50 ([3]; read-out: WT-hSWAT IC50 (μM) (WT_FBA_HIS-SUMO-hSWAT IC50), filtration binding assay, H3 labeled 2′3′cGAMP probe): < 20 µM | CCSc1c(Cl)ccc2c(=O)c3ccc(C(C)(C)C)cc3n(CC(=O)O)c12 |
